Source: article PMC2705653 (Molecular cell, 2009)

T1: Chp1 chromodomain, wild type (for binding studies) (S. pombe, UniProt Q10103 9-76)
T1 sequence (looked up): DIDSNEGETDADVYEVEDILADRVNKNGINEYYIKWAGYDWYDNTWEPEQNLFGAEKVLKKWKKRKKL

T2: Chp1 chromodomain F61A (S. pombe, UniProt Q10103 9-76, F61A)
T2 sequence (looked up): T1 sequence (looked up) with F53A

T3: Chp1 chromodomain V21A (S. pombe, UniProt Q10103 9-76, V21A)
T3 sequence (looked up): T1 sequence (looked up) with V13A

T4: Chp1 chromodomain E23V (S. pombe, UniProt Q10103 9-76, E23V)
T4 sequence (looked up): T1 sequence (looked up) with E15V

T5: Chp1 chromodomain N59A (S. pombe, UniProt Q10103 9-76, N59A)
T5 sequence (looked up): T1 sequence (looked up) with N51A

T6: Chp1 chromodomain V24M (S. pombe, UniProt Q10103 9-76, V24M)
T6 sequence (looked up): T1 sequence (looked up) with V16M

T7: Chp1 chromodomain E23V,V24M (S. pombe, UniProt Q10103 9-76, E23V | V24M)
T7 sequence (looked up): T1 sequence (looked up) with E15V, V16M


Columns and labels:
Assay in all cases: fluorescence polarisation
[1] = target: T1, Chp1 chromodomain, wild type (for …)
Chp1 chromodomain F61A = target: T2, Chp1 chromodomain F61A
Chp1 chromodomain V21A = target: T3, Chp1 chromodomain V21A
Chp1 chromodomain E23V = target: T4, Chp1 chromodomain E23V
Chp1 chromodomain N59A = target: T5, Chp1 chromodomain N59A
Chp1 chromodomain V24M = target: T6, Chp1 chromodomain V24M
[2] = target: T7, Chp1 chromodomain E23V,V24M

| Binder | Kd [1] [µM] | Kd (Chp1 chromodomain F61A) [µM] | Kd (Chp1 chromodomain V21A) [µM] | Kd (Chp1 chromodomain E23V) [µM] | Kd (Chp1 chromodomain N59A) [µM] | Kd (Chp1 chromodomain V24M) [µM] | Kd [2] [µM] |
| --- | --- | --- | --- | --- | --- | --- | --- |
| ARTKQTARKSTGGKAY (dimethyl-lysine at 9; fluorescein (position not given)) [fluorescein labeled H3K9me2 peptide] | 0.55 ± 0.09 | 1.02 ± 0.28 | 3.38 ± 0.6 | 4.1 ± 0.37 | 6.22 ± 1.12 | 9.58 ± 0.55 | 22.1 ± 1.7 |
| ARTKQTARKSTGGKAY (trimethyl-lysine at 9) [H3K9me3 peptide (fluorescence polarization)] | 0.19 ± 0.02 | 0.54 ± 0.2 | 1.46 ± 0.4 | 3.16 ± 0.32 | 5.95 ± 1.83 | 5 ± 0.45 |  |

Changes are numbered by the printed parent chain.
